Test results as given in IntAct's records for PubMed 35512704.

B1: RAC-alpha serine/threonine-protein kinase (Homo sapiens), P31749 (parent)
chain: MSDVAIVKEGWLHKRGEYIKTWRPRYFLLKNDGTFIGYKERPQDVDQREAPLNNFSVAQCQLMKTERPRPNTFIIRCLQWTTVIERTFHVETPEEREEWTTAIQTVADGLKKQEEEEMDFRSGSPSDNSGAEEMEVSLAKPKHRVTMNEFEYLKLLGKGTFGKVILVKEKATGRYYAMKILKKEVIVAKDEVAHTLTENRVLQNSRHPFLTALKYSFQTHDRLCFVMEYANGGELFFHLSRERVFSEDRARFYGAEIVSALDYLHSEKNVVYRDLKLENLMLDKDGHIKITDFGLCKEGIKDGATMKTFCGTPEYLAPEVLEDNDYGRAVDWWGLGVVMYEMMCGRLPFYNQDHEKLFELILMEEIRFPRTLGPEAKSLLSGLLKKDPKQRLGGGSEDAKEIMQHRFFAGIVWQHVYEKKLSPPFKPQVTSETDTRYFDEEFTAQMITITPPDQDDSMECVDSERRPHFPQFSYSASGTA

Variants of: B1
Conditions: with bcorl_human BCORL1, Q5H9F3

Variant	effect of a mutation on the interaction
E17K	causing an interaction

Variants of: B1
Conditions: with btk_human BTK

Variant	effect of a mutation on the interaction
E17K	causing an interaction

Variants of: B1
Conditions: with cdk6_human CDK6

Variant	effect of a mutation on the interaction
E17K	causing an interaction

Variants of: B1
Conditions: with chd1l_human CHD1L

Variant	effect of a mutation on the interaction
E17K	causing an interaction

Variants of: B1
Conditions: with chd2_human CHD2, O14647

Variant	effect of a mutation on the interaction
E17K	causing an interaction

Variants of: B1
Conditions: with ch3l1_human CHI3L1, P36222

Variant	effect of a mutation on the interaction
E17K	causing an interaction

Variants of: B1
Conditions: with dll3_human DLL3, Q9NYJ7

Variant	effect of a mutation on the interaction
E17K	causing an interaction

Variants of: B1
Conditions: with duox2_human DUOX2, Q9NRD8

Variant	effect of a mutation on the interaction
E17K	causing an interaction

Variants of: B1
Conditions: with e2f2_human E2F2, Q14209

Variant	effect of a mutation on the interaction
E17K	causing an interaction

Variants of: B1
Conditions: with e2f5_human E2F5, Q15329

Variant	effect of a mutation on the interaction
E17K	causing an interaction

Variants of: B1
Conditions: with epha7_human EPHA7, Q15375

Variant	effect of a mutation on the interaction
E17K	causing an interaction

Variants of: B1
Conditions: with erbb4_human ERBB4, Q15303

Variant	effect of a mutation on the interaction
E17K	causing an interaction

Variants of: B1
Conditions: with esr1_human ESR1, P03372

Variant	effect of a mutation on the interaction
E17K	causing an interaction

Variants of: B1
Conditions: with etv1_human ETV1, P50549

Variant	effect of a mutation on the interaction
E17K	causing an interaction

Variants of: B1
Conditions: with ezh1_human EZH1, Q92800

Variant	effect of a mutation on the interaction
E17K	causing an interaction

Variants of: B1
Conditions: with ezh2_human EZH2, Q15910

Variant	effect of a mutation on the interaction
E17K	causing an interaction

Variants of: B1
Conditions: with facd2_human FANCD2, Q9BXW9

Variant	effect of a mutation on the interaction
E17K	causing an interaction

Variants of: B1
Conditions: with fgf19_human FGF19, O95750

Variant	effect of a mutation on the interaction
E17K	causing an interaction

Variants of: B1
Conditions: with fgfp1_human FGFBP1

Variant	effect of a mutation on the interaction
E17K	causing an interaction

Variants of: B1
Conditions: with fzr1_human FZR1

Variant	effect of a mutation on the interaction
E17K	causing an interaction

Variants of: B1
Conditions: with gata1_human GATA1, P15976

Variant	effect of a mutation on the interaction
E17K	causing an interaction

Variants of: B1
Conditions: with p66b_human GATAD2B

Variant	effect of a mutation on the interaction
E17K	causing an interaction

Variants of: B1
Conditions: with gna11_human GNA11, P29992

Variant	effect of a mutation on the interaction
E17K	causing an interaction

Variants of: B1
Conditions: with gna13_human GNA13, Q14344

Variant	effect of a mutation on the interaction
E17K	causing an interaction

Variants of: B1
Conditions: with h33_human H3-3A

Variant	effect of a mutation on the interaction
E17K	causing an interaction

Variants of: B1
Conditions: with hdac1_human HDAC1

Variant	effect of a mutation on the interaction
E17K	causing an interaction

Variants of: B1
Conditions: with hdac3_human HDAC3, O15379

Variant	effect of a mutation on the interaction
E17K	causing an interaction

Variants of: B1
Conditions: with h31_human H3C1

Variant	effect of a mutation on the interaction
E17K	causing an interaction

Variants of: B1
Conditions: with rash_human HRAS

Variant	effect of a mutation on the interaction
E17K	causing an interaction

Variants of: B1
Conditions: with ist1_human IST1

Variant	effect of a mutation on the interaction
E17K	causing an interaction

Variants of: B1
Conditions: with jak2_human JAK2, O60674

Variant	effect of a mutation on the interaction
E17K	causing an interaction

Variants of: B1
Conditions: with kalrn_human KALRN

Variant	effect of a mutation on the interaction
E17K	causing an interaction

Variants of: B1
Conditions: with kat6a_human KAT6A

Variant	effect of a mutation on the interaction
E17K	causing an interaction

Variants of: B1
Conditions: with kdm5a_human KDM5A

Variant	effect of a mutation on the interaction
E17K	causing an interaction

Variants of: B1
Conditions: with kdm5c_human KDM5C

Variant	effect of a mutation on the interaction
E17K	causing an interaction

Variants of: B1
Conditions: with maga6_human MAGEA6, P43360

Variant	effect of a mutation on the interaction
E17K	causing an interaction

Variants of: B1
Conditions: with m3k1_human MAP3K1, Q13233

Variant	effect of a mutation on the interaction
E17K	causing an interaction

Variants of: B1
Conditions: with mk10_human MAPK10, P53779

Variant	effect of a mutation on the interaction
E17K	causing an interaction

Variants of: B1
Conditions: with mk04_human MAPK4, P31152

Variant	effect of a mutation on the interaction
E17K	causing an interaction

Variants of: B1
Conditions: with mk07_human MAPK7, Q13164

Variant	effect of a mutation on the interaction
E17K	causing an interaction

Variants of: B1
Conditions: with sin1_human MAPKAP1, Q9BPZ7

Variant	effect of a mutation on the interaction
E17K	causing an interaction

Variants of: B1
Conditions: with mcl1_human MCL1

Variant	effect of a mutation on the interaction
E17K	causing an interaction

Variants of: B1
Conditions: with men1_human MEN1, O00255

Variant	effect of a mutation on the interaction
E17K	causing an interaction

Variants of: B1
Conditions: with mybb_human MYBL2, P10244

Variant	effect of a mutation on the interaction
E17K	causing an interaction

Variants of: B1
Conditions: with myc_human MYC

Variant	effect of a mutation on the interaction
E17K	causing an interaction

Variants of: B1
Conditions: with mycn_human MYCN

Variant	effect of a mutation on the interaction
E17K	causing an interaction

Variants of: B1
Conditions: with merl_human NF2, P35240

Variant	effect of a mutation on the interaction
E17K	causing an interaction

Variants of: B1
Conditions: with ikba_human NFKBIA

Variant	effect of a mutation on the interaction
E17K	causing an interaction

Variants of: B1
Conditions: with notc2_human NOTCH2, Q04721

Variant	effect of a mutation on the interaction
E17K	causing an interaction

Variants of: B1
Conditions: with ntrk2_human NTRK2, Q16620

Variant	effect of a mutation on the interaction
E17K	causing an interaction

Variants of: B1
Conditions: with pak3_human PAK3, O75914

Variant	effect of a mutation on the interaction
E17K	causing an interaction

Variants of: B1
Conditions: with prkn_human PRKN

Variant	effect of a mutation on the interaction
E17K	causing an interaction

Variants of: B1
Conditions: with pdcd1_human PDCD1, Q15116

Variant	effect of a mutation on the interaction
E17K	causing an interaction

Variants of: B1
Conditions: with pdk1_human PDK1, Q15118

Variant	effect of a mutation on the interaction
E17K	causing an interaction

Variants of: B1
Conditions: with pk3ca_human PIK3CA

Variant	effect of a mutation on the interaction
E17K	causing an interaction

Variants of: B1
Conditions: with pk3cb_human PIK3CB

Variant	effect of a mutation on the interaction
E17K	causing an interaction

Variants of: B1
Conditions: with dpoe1_human POLE

Variant	effect of a mutation on the interaction
E17K	causing an interaction

Variants of: B1
Conditions: with ppard_human PPARD

Variant	effect of a mutation on the interaction
E17K	causing an interaction
